According to patent US20230202975A1 (Recordati Industria Chimica e Farmaceutica S.p.A., priority 2021, published 2023):

Assays:
[1] = Particle size distribution (laser particle size analyser, Ph. Eur. 2.9.31); assay type: physicochemical; conditions: media on 3 batches; sieved 600 microns, no micronization
Procedure: Particle size distribution was evaluated in line with European Pharmacopeia 2.9.31 with the instrument and according to sample preparation and test conditions reported in the following Table 3: […]

[2] = 40±2° C., 75±5% R.H.
[3] = DVS, 25° C.
[4] = 25±2° C., 60±5% R.H., 12 months
[5] = 25±2° C., 60±5% R.H., 18 months
[6] = 25±2° C., 60±5% R.H., 24 months
[7] = 25±2° C., 60±5% R.H., 36 months

## Cysteamine Bitartrate [Example 4]
[1]
  Average particle size by volume D50: D50: 28.4 μm
  Average particle size by volume D90: D90: 102.5 μm
25±2° C., 60±5% R.H., 0 months
  HPLC Related Substances %: 2,2-dimethylthiazolidine: <0.02%
  HPLC Related Substances %: Cystamine: 0.08% and 0.05% and 0.09%
  HPLC Related Substances %: Di-Cysteamine acetonide: <0.02%
  HPLC Related Substances %: Total of impurities: 0.08% and 0.05% and 0.09%
  Volumetric Assay (on dried basis) %: 99.8% and 100.2% and 99.7%
25±2° C., 60±5% R.H., 6 months
  HPLC Related Substances %: 2,2-dimethylthiazolidine: <0.02%
  HPLC Related Substances %: Cystamine: 0.10% and 0.09%
  HPLC Related Substances %: Di-Cysteamine acetonide: <0.02%
  HPLC Related Substances %: Other impurities: <0.02%
  HPLC Related Substances %: Total of impurities: 0.10% and 0.09%
  Loss on drying: 0.07% and 0.15% and 0.14%
  Volumetric Assay (on dried basis) %: 99.6% and 99.9%
[4]
  HPLC Related Substances %: 2,2-dimethylthiazolidine: <0.02%
  HPLC Related Substances %: Cystamine: 0.11% and 0.09%
  HPLC Related Substances %: Di-Cysteamine acetonide: <0.02%
  HPLC Related Substances %: Other impurities: <0.02%
  HPLC Related Substances %: Total of impurities: 0.11% and 0.09%
  Loss on drying: 0.20% and 0.25% and 0.19%
  Volumetric Assay (on dried basis) %: 99.9% and 99.4% and 99.5%
[5]
  HPLC Related Substances %: 2,2-dimethylthiazolidine: <0.02%
  HPLC Related Substances %: Cystamine: 0.12% and 0.11%
  HPLC Related Substances %: Di-Cysteamine acetonide: <0.02%
  HPLC Related Substances %: Other impurities: <0.02%
  HPLC Related Substances %: Total of impurities: 0.12% and 0.11%
  Loss on drying: 0.14% and 0.07%
  Volumetric Assay (on dried basis) %: 99.8% and 100.0% and 99.7%
[6]
  HPLC Related Substances %: 2,2-dimethylthiazolidine: <0.02%
  HPLC Related Substances %: Cystamine: 0.13% and 0.12%
  HPLC Related Substances %: Di-Cysteamine acetonide: <0.02% and 0.02%
  HPLC Related Substances %: Other impurities: <0.02%
  HPLC Related Substances %: Total of impurities: 0.13% and 0.12%
  Loss on drying: 0.30% and 0.27% and 0.38%
  Volumetric Assay (on dried basis) %: 99.8% and 99.6% and 99.7%
[7]
  Volumetric Assay (on anhydrous) %: 100.5% and 100.2% and 100.4%
  Water Content (K.F.) %: 0.81% and 0.47% and 0.67%
Long term storage
  Stability duration: ≥ 36 months
[2]; 0 months
  HPLC Related Substances %: 2,2-dimethylthiazolidine: <0.02%
  HPLC Related Substances %: Cystamine: 0.08% and 0.05% and 0.09%
  HPLC Related Substances %: Di-Cysteamine acetonide: <0.02%
  HPLC Related Substances %: Other impurities: <0.02% and <0.05%
  HPLC Related Substances %: Total of impurities: 0.08% and 0.05% and 0.09%
  Volumetric Assay (on anhydrous) %: 99.8% and 100.2%
[2]; 3 months
  HPLC Related Substances %: 2,2-dimethylthiazolidine: <0.02%
  HPLC Related Substances %: Cystamine: 0.14% and 0.11% and 0.09%
  HPLC Related Substances %: Di-Cysteamine acetonide: <0.02%
  HPLC Related Substances %: Other impurities: <0.05% and <0.02%
  HPLC Related Substances %: Total of impurities: 0.14% and 0.11% and 0.09%
  Loss on drying: 0.04% and 0.03% and 0.02%
  Volumetric Assay (on anhydrous) %: 99.5% and 99.4%
[2]; 6 months
  HPLC Related Substances %: 2,2-dimethylthiazolidine: <0.02%
  HPLC Related Substances %: Cystamine: 0.20% and 0.10% and 0.13%
  HPLC Related Substances %: Di-Cysteamine acetonide: <0.02%
  HPLC Related Substances %: Other impurities: <0.05% and <0.02%
  HPLC Related Substances %: Total of impurities: 0.20% and 0.10% and 0.13%
  Volumetric Assay (on anhydrous) %: 99.8% and 99.7% and 99.6%
[3]
  RH at which the hydration process (conversion into the hydrate form) started: 25 % RH
  RH at which the hydration process finished: 35 % RH
[3]; about 1 mol of water
  water gained during hydration: 7.5 % w/w

Several values for one entry are separate records, joined by “and”; a condition that tells them apart may be missing. Equal entries are not always repeated. Where two headings read alike, the source gives them in different places.
